# Compound activity deposited in PubChem by National Center for Advancing Translational Sciences (NCATS).
# Only some compounds are listed: those with a hit (about 2.2% of all), similar ones and a draw of the others.
# miR-21 reporter = miR-21 reporter, rising signal | HeLa miR-21 FLuc reporter, luciferase, 48 h | Potency, µM (doses to about 38.3 µM) | 340,000 tested, under 10 active | AID 2288; active = well fitted rising curve with a large enough effect; inconclusive = small, poorly fitted or top-dose-only effect; inactive = no such curve, though single readings can be large or run the other way;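 note: miR-21 action dims this reporter so a rising signal means less miR-21 action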
#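 HeLa cells stably expressing CMV-driven firefly luciferase with a downstream miR-21 binding sequence, endogenously expressing miR-21, were treated with titrations (up to about 40uM final) for 48 hours at 37 degree Celsius. Luciferase luminescence was read after lysis.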
# GALK inh = galactokinase (human) inhibition. P51570. actives 0.007% (n = 270,000). Potency, µM (top dose mostly 57.5 µM), hits mostly inhibitors. Purified GALK, Kinase-Glo residual ATP luminescence
#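 Galactose (100 uM) and ATP (35 uM) were turned over by 5 nM GALK for 1 h at RT. Kinase-Glo Plus then converted the remaining ATP into a luminescent signal.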
# PI4K2A inh = blocks human PI4K2A kinase activity; purified PI4K2A, ADP-Glo luminescence, 1 h; stronger effect = lower value; Q9BTU6; activity change, negative = inhibition, % at 76.9 µM; actives 0.13% (n = 420,000); in the data active = activity change below about -50%; inconclusive = mostly about -30% to -49%
#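 Compounds are screened against recombinant PI4K2A using PI as substrate and ATP, the latter dispensed at 300 microM. Reactions run one hour at ambient temperature before ADP-Glo detection; full inhibition defined by wells lacking enzyme.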
# Nrf2 activator = activators of Nrf2 (ARE) signaling; AREc32 ARE-luciferase reporter (MCF7-derived line), luminescence, 24 h; AID 624171; actives 0.31% (n = 410,000); Potency, µM (highest dose often 46.1 µM), most hits filed as activators; also: nearly all actives have a fitted effect of over 65% in size
#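 Luciferase luminescence (Steady-Glo, 30 min at room temperature) served as the read-out of ARE activation in AREc32 cells treated with compounds for 24 hr at 37 deg C.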
# Nrf2 block = Nrf2 pathway inhibition. A549 ARE-Fluc reporter, luciferase luminescence, 18-24 h. Potency, µM (doses to about 46 µM), hits mostly inhibitors. actives 2.1% (n = 360,000); also: nearly all actives have a fitted effect of over 60% in size
#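 A549 ARE_Fluc cells (5000/well, 5% FBS OPTI-MEM) pre-incubated 2 h, then treated with compounds 18-24 h at 37C/5% CO2 in concentration-response. CellTiter-Fluor viability read first; BugLite luciferase luminescence after 15 min at room temperature gives Nrf2 activity.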
# A549 tox = kills or reduces viability of A549 cells in Nrf2 counter-screen | A549 ARE-Fluc cells, CellTiter-Fluor viability, 18-24 h | Potency, µM (titrated, usually from 46 µM), actives largely listed as inhibitors | actives 0.16% (n = 390,000)
#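 A549 ARE_Fluc cells in 5% FBS OPTI-MEM were exposed to compounds in concentration-response for 18-24 h at 37 deg C. Viability was read by CellTiter-Fluor fluorescence (Ex 405/Em 525) after 30 min, before the luciferase read.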
# Hits are given with their value; 0 = inactive; ? = inconclusive; - = no result given. Unless noted, calls follow the shape of the dose curve; as a rule, active = well fitted curve in the direction sought with a large enough effect; inconclusive = small, poorly fitted or top-dose-only effect, or another doubt; inactive = no such curve, though single readings can be large; an effect the other way counts as inactive or inconclusive.
SMILES,miR-21 reporter,GALK inh,PI4K2A inh,Nrf2 activator,Nrf2 block,A549 tox
COc1ccc(C(O)(C2CCCCC2)C(CN2CCOCC2)c2ccccc2)cc1 (stereo unspecified),0,0,0,0,21µM,0
O=C(Cn1c(COc2ccccc2)nc2ccccc21)Nc1cc(Cl)ccc1Cl,0,0,0,0,18µM,?
O=C(Cn1c(COc2ccccc2)nc2ccccc21)Nc1cc(Cl)cc(Cl)c1,0,0,0,0,0,0
COc1ccc(C(=O)O)cc1COc1ccc(NC(C)=O)cc1,-,-,-,-,0,0
CCOC(=O)c1sc2nc(C)nc(NCc3ccccc3OC)c2c1C,0,0,0,0,21µM,0
c1ccc(-c2csc3ncnc(NCCN4CCOCC4)c23)cc1,0,0,0,0,15µM,0
Cc1cc(NC(=O)c2ccc(NS(=O)(=O)c3ccccc3)cc2)no1,-,-,0,-,-,-
CC(C)C[C@@H]1NC(=O)[C@H](Cc2ccccc2)N(C)C(=O)[C@H](C)NC(=O)c2ccccc2NC(=O)[C@H](Cc2ccc(O)cc2)N(C)C1=O,?,0,0,0,23µM,?
CC(C)CC1NC(=O)N(CC(=O)N2c3ccccc3NC(=O)C2(C)C)C1=O (stereo unspecified),0,0,0,0,0,0
Cc1ccc(C(=O)c2coc3cc([N+](=O)[O-])c(O)c([N+](=O)[O-])c23)cc1,0,0,0,0,?,21µM
Cc1ccc(C(=O)c2ccc([N+](=O)[O-])cc2)cc1,0,0,0,0,0,0
CC(C)C[C@H](NC(C)(C)C(=O)NC1CCCCC1)C(=O)NCC(c1ccccc1)c1ccccc1,-,-,0,-,-,-
COc1ccc(-c2oc3ccc(N4CCOCC4)cc3c2C#CCO)cc1,-,-,0,0,18µM,0
COc1ccc(-c2ccc3oc(-c4ccc(OC)cc4)c(C#CCO)c3c2)cc1,-,-,0,0,8.2µM,0
CC(C)C[C@@H](COCc1ccc(Cl)cc1)N1CCN(C(=O)c2ccc(C(F)(F)F)cc2)CCC1=O,-,-,0,0,-,-
CC(C)CC(COCc1ccc(Cl)cc1)N1CCN(C(=O)c2ccc(Cl)cc2Cl)CCC1=O (stereo unspecified),0,-,0,0,21µM,?
Cc1cccc(COC[C@H](Cc2ccccc2)N2CCN(C(=O)c3cccc(Cl)c3)CCC2=O)c1,-,-,0,0,-,-
Cc1cccc(COCC(Cc2ccccc2)N2CCN(C(=O)c3cccc(Cl)c3)CCC2=O)c1 (stereo unspecified),0,-,0,0,21µM,?
CC(C)C[C@H](NC1(C(=O)NC2CCCCC2)CCCCC1)C(=O)NCCc1c[nH]c2ccccc12,-,-,0,-,-,-
COc1cc(/C=C/c2sc3ccccc3[n+]2CCCS(=O)(=O)[O-])ccc1O,0,?,?,0,?,12µM
CNc1sc(C(=O)c2ccccc2F)c(N)c1-c1nc2ccccc2s1,0,0,0,10µM,?,0
Cc1ccc(NS(=O)(=O)c2ccc(-c3ccccc3)cc2)cc1C,-,-,-,-,?,0
CCN(CC)C(=O)CC[C@H]1CC[C@]2(CCCN(Cc3ccccn3)C2)O1,-,-,0,-,-,-
Cc1[nH]c2ccccc2c1SCc1nnc(SCc2ccccc2)n1C,0,-,0,0,26µM,0
Cc1[nH]c2ccccc2c1SCc1nnc(SCc2ccc(Cl)cc2)n1C,0,-,0,0,?,0
SMILES,miR-21 reporter,GALK inh,PI4K2A inh,Nrf2 activator,Nrf2 block,A549 tox
C/C(C=NNC(=O)CSc1nnc(-c2ccc(Cl)cc2)n1-c1ccccc1)=C\c1ccccc1,-,-,0,-,-,-
Cc1ccc(S(=O)(=O)n2nccc2-c2c(-c3ccccc3)noc2C)cc1,0,-,0,0,18µM,0
CC(=O)c1ccc(NC(=O)NC2CCCCN(Cc3ccc(Cl)cc3)C2=O)cc1 (stereo unspecified),-,-,0,-,-,-
c1ccc2sc(C3CCN(Cc4nnnn4Cc4ccc5c(c4)OCO5)CC3)nc2c1,0,0,0,0,?,0
COc1ccc(Cn2nnnc2CN2CCC(c3nc4ccccc4s3)CC2)cc1,0,0,0,0,23µM,0
O=C1CCC2=C1C(c1ccccc1Cl)N=C(Nc1nc3ccccc3o1)N2 (stereo unspecified),-,-,-,-,0,0
Oc1cccc2ccc(/C=C/c3c(F)cccc3Cl)nc12,0,0,0,1µM,0,0
Nc1nccc(/C=C/c2c(F)cccc2Cl)n1,0,0,0,10µM,?,0
O=C(O)c1ccccc1SC1=NS(=O)(=O)c2ccccc21,-,-,-,-,0,0
CCOc1ccc(-n2c(SC/C=C/c3ccccc3)nnc2-c2ccco2)cc1,-,-,0,-,-,-
CCc1c(C(=O)NCCc2ccc(N3CCCCC3)cc2)[nH]c2ccc(Cl)cc12,-,-,0,-,-,-
Cc1ccccc1CN1CCCCC(NC(=O)Cc2cccs2)C1=O (stereo unspecified),-,-,0,-,-,-
COc1ccc(NC(=O)N2CCCc3ccccc32)cc1,0,0,0,0,0,-
COc1ccc(NC(=O)N2CCc3ccccc32)cc1,0,0,-54,0,?,0
COc1ccc(N/N=C(/C(C)=O)N2CCCc3ccccc32)cc1,0,0,0,0,6.5µM,0
Cc1c(NC(=O)C2CCCN(S(=O)(=O)c3ccc(Br)s3)C2)c(=O)n(-c2ccccc2)n1C (stereo unspecified),-,-,0,-,-,-
O=S(=O)(NCC(Nc1ccc(Cl)cc1)c1ccccc1)c1ccc(Cl)cc1 (stereo unspecified),0,0,0,0,21µM,?
Cc1ccc(S(=O)(=O)NCC(Nc2cccc(Cl)c2)c2ccccc2)cc1 (stereo unspecified),?,-,0,0,?,0
O=C(O)c1cc2ccccc2c(N=Nc2cccnc2)c1O,0,0,0,0,18µM,?
Cc1c(C(C)C)c(=O)n(-c2ccc(S(=O)(=O)NCc3ccccc3)cc2)n1C,0,0,0,0,7.3µM,0
Cc1c(C(C)C)c(=O)n(-c2ccc(S(=O)(=O)N3CCOCC3)cc2)n1C,0,0,0,0,?,0
Cc1c(C(C)C)c(=O)n(-c2ccc(S(=O)(=O)NC3CCCCC3)cc2)n1C,0,0,0,0,15µM,0
CCOC(=O)CC[C@H]1CC[C@]2(CCCN(C(=O)c3ccno3)C2)O1,-,-,0,-,-,-
CN1CCN(c2ccc3c(c2)Oc2ccccc2CN(Cc2cn(Cc4ccc(F)cc4)nn2)S3(=O)=O)CC1,-,-,0,-,-,-
O=C(NN=C1C2CC3CC(C2)CC1C3)c1ccncc1,0,0,0,0,0,0
O=C(N/N=C/C(Cl)=C\c1ccccc1)c1cccs1,0,0,0,11µM,?,0
O=C(N/N=C/C(Cl)=C/c1ccccc1)c1ccncc1,0,0,0,22µM,0,0
CC(/C=N/NC(=O)c1cccs1)=C\c1ccccc1,0,0,0,0,?,0
